# This is a selection; strong and weak results do not stand in their true shares. Some tests of the compounds listed are not included; inactive here does not mean inactive elsewhere. The source made the active and inactive calls.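 Rule for the calls: active = inhibition above about 50% when tested at 10 µM (limit read from the data); inactive = the rest.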
# By UniProt entry, the sequences of proteins in these tests, tags left out.
# UniProt P08659, whole entry, looked up: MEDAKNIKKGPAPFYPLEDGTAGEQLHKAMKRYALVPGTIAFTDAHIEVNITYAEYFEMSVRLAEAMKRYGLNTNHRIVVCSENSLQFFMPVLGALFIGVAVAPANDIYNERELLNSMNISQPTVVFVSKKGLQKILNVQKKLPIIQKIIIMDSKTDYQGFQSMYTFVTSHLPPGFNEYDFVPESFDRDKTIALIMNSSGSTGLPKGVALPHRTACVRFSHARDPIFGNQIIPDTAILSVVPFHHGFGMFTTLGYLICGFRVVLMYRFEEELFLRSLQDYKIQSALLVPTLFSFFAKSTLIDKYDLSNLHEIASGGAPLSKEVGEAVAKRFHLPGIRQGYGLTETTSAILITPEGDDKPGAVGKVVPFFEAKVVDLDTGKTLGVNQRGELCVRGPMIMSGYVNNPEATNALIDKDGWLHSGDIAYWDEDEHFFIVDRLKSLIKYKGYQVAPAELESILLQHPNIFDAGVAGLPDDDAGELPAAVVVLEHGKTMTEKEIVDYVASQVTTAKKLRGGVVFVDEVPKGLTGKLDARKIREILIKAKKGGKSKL
# Biological target: Luciferin 4-monooxygenase (Photinus pyralis) (UniProt P08659)
# Assay: inhibition of purified FLuc reporter enzyme – biochemical, luminescence, ATPLite, artefact control for luciferase-based inhibitor screens, primary screen (AID 1006)
# Settings: ATPLite firefly luciferase biochemical luminescence, 10 min; at 10 µM; active compounds read high
row,Structure (SMILES),inhibition
1,CN(C)c1cccc(C(=O)NCC2(N(C)C)CCCCC2)c1,inactive: -8.7%
2,O=C(OC1CN2CCC1CC2)C(CO)(c1ccccc1)c1ccccc1 (centres undefined),inactive: -5.9%
3,COc1cccc(C(=O)NCC2(N3CCCCC3)CCCCC2)c1,inactive: -3.4%
4,CCN1CCCC(OC(=O)C2(O)c3ccccc3C=Cc3ccccc32)C1 (centres undefined),inactive: -12%
5,C=CCN1CCN(CCOC(=O)C(O)(c2ccccc2)c2ccccc2)CC1,inactive: -9.1%
6,CN(C)C1CCCC1OC(=O)C(O)(c1ccccc1)c1ccccc1 (centres undefined),inactive: -2.5%
7,Cc1ccccc1C(=O)NCC1(N2CCCCC2)CCCCC1,inactive: -11%
8,CC(C)N1C(=O)CC2(CCN(CCOC(=O)C(O)(c3ccccc3)c3ccccc3)CC2)C1=O,inactive: 0.5%
9,O=C(NCC1(N2CCCCC2)CCCCC1)c1cc([N+](=O)[O-])ccc1Cl,inactive: -2.6%

# From PubChem BioAssay AID1006 (Sanford-Burnham Center for Chemical Genomics, 2008)
